Target: T1, Peroxisome proliferator-activated receptor alpha (Homo sapiens, UniProt Q07869)
T1 sequence (Q07869 whole entry): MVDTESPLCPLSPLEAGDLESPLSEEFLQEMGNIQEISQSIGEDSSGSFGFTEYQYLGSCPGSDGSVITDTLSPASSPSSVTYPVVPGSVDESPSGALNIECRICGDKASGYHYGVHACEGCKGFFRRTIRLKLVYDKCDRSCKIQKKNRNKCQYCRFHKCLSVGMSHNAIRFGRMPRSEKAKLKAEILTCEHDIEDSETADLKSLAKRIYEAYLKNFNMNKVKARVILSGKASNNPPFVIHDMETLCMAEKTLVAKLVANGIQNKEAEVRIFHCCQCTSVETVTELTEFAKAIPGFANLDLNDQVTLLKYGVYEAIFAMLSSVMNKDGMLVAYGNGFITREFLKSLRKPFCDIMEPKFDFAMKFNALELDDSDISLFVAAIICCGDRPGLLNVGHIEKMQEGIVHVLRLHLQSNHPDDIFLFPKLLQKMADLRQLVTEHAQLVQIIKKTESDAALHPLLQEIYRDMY

Cc1oc(-c2ccccc2)nc1CCOc1ccc(C[C@H](Nc2ccccc2C(=O)c2ccccc2)C(=O)O)cc1 [FARGLITAZAR]
EC50: 450 nM

From ChEMBL document CHEMBL1133093, “The PPARs: from orphan receptors to drug discovery” (J Med Chem, 2000)
